Measured values from patent publication US20010056085A1, “Methods of using vesicant drug formulations” (priority 1996, published 2001).

Test: Half-life of ADR destruction by UVA light in the presence of test compounds (decrease in absorbance at 480 nm)
Type: physicochemical
Settings: for Half-Life of ADR Destruction, 100 μM Test Compound / Half-Life of ADR Destruction, 100 μM Test Compound and 0.5 μM Riboflavin: UVA light; for half-life (FIG. 32): compound alone; for half-life (FIG. 32) in the presence of riboflavin: compound in combination with riboflavin
[1] = 100 μM test compound with 0.5 μM riboflavin
[2] = with 0.5 μM riboflavin, +4% DMSO

| Compound | Half-Life of ADR Destruction, 100 μM Test Compound (100 μM test compound alone) | Half-Life of ADR Destruction, 100 μM Test Compound and 0.5 μM Riboflavin [1] | also measured |
| --- | --- | --- | --- |
| Nc1ccccc1[N+](=O)[O-] | 60.2 min | 27.4 min | – |
| CNc1ccccc1 | – | 100.3 min | – |
| O=c1c2ccccc2[nH]c2ccccc12 | – | – | Half-Life of ADR Destruction, 100 μM Test Compound (test compound alone, +8% DMSO): 20.1 min; Half-Life of ADR Destruction, 100 μM Test Compound and 0.5 μM Riboflavin (with 0.5 μM riboflavin, +8% DMSO): 15.1 min |
| OC(=S)Cc1ccccc1 | 37.6 min | 27.4 min | half-life (FIG. 32): 37.6; half-life (FIG. 32) in the presence of riboflavin: 27.4 |
| Nc1ccc(Oc2ccc(N)cc2)cc1 | – | 60.2 min | – |
| c1ccc2c(c1)CCNC2 | – | 75.3 min | – |
| O=C1c2ccccc2C(=O)c2ccccc21 | – | – | Half-Life of ADR Destruction, 100 μM Test Compound (test compound alone, +4% DMSO): 3.27 min; Half-Life of ADR Destruction, 100 μM Test Compound and 0.5 μM Riboflavin [2]: 1.62 min |
| O=CC=Cc1ccccc1 | 50.2 min | 50.2 min | – |
| Nc1ccc(C(F)(F)F)cc1 | – | 12.0 min | – |
| 4-Hydroxyquinolinone | 21.5 min | 15.8 min | – |
| Nc1cccc(-c2ccccc2)c1 | 50.2 min | 21.5 min | – |
| CC(=O)c1ccccc1N | – | 15.1 min | – |
| Nc1ccc(-c2ccc(N)cc2)cc1 | – | 50.2 min | – |
| c1ccc2[nH]ccc2c1 | 50.2 min | 15.8 min | – |
| Nc1ccc(-c2ccccc2)cc1 | – | 5.68 min | – |
| COc1cc(C=CC(=O)O)cc(OC)c1OC | 43.0 min | 11.6 min | – |
| Oc1ccccc1 | – | 50.2 min | – |
| CN[C@@H](Cc1c[nH]c2ccccc12)C(=O)O | – | 10.4 min | – |
| Nc1cccc([N+](=O)[O-])c1 | – | 27.4 min | – |
| CN(C)Cc1c[nH]c2ccccc12 | – | 8.36 min | – |
| Nc1ccc(C(=O)O)c(O)c1 | – | 60.2 min | – |
| C[S+]([O-])c1ccccc1 (centres unmarked) | 42.0 min | 33.5 min | – |
| Nc1ccccc1C(=O)O | – | 75.3 min | – |
| Nc1ccccc1O | – | 100.3 min | – |
| N#CCc1c[nH]c2ccccc12 | – | 8.36 min | – |

| Compound | Half-Life of ADR Destruction, 100 μM Test Compound (100 μM test compound alone) | Half-Life of ADR Destruction, 100 μM Test Compound and 0.5 μM Riboflavin [1] | also measured |
| --- | --- | --- | --- |
| CCc1ccccc1N | – | 17.7 min | – |
| Nc1ccc(O)cc1 | – | 301.0 min | – |
| c1ccc2c(c1)[nH]c1cnccc12 | 25.1 min | 29.3 ± 5.9 min | – |
| O=C(O)c1ccc(O)c(O)c1 | – | 100.3 min | – |
| CC(=O)c1ccc(N)cc1 | – | 37.6 min | – |
| COc1ccccc1C(=O)O | 43.0 min | 33.5 min | – |
| CN(C)c1ccc(N)cc1 | – | 301.0 min | – |
| Nc1c(F)cc(F)cc1F | – | 30.1 min | – |
| Nc1ccc([N+](=O)[O-])cc1 | – | 17.7 min | – |
| COc1ccc(N)cc1 | – | 50.2 min | – |
| Nc1ccc(N)cc1 | – | 301.0 min | – |
| COc1ccc(C(=O)c2ccccc2)cc1 | 37.6 min | 25.1 min | – |
| O=S(=O)(c1ccccc1)c1ccccc1 | 43.0 min | 37.6 min | – |
| C=CCc1ccc2c(c1)OCO2 | 50.2 min | 37.6 min | – |
| CN(C)n1cccc1 | – | 30.7 min | – |
| O=CCCc1ccccc1 | 50.2 min | 50.2 min | – |
| O=C(O)COc1ccccc1 | 33.5 min | 30.1 min | half-life (FIG. 32): 33.5; half-life (FIG. 32) in the presence of riboflavin: 30.1 |
| O=C1c2ccccc2C(=O)c2cc(S(=O)(=O)O)ccc21 | 0.124 min | – | – |
| Oc1cc(O)c2ccccc2n1 | 60.2 min | 60.2 min | – |
| Brc1ccc2[nH]c3ccc(Br)cc3c2c1 | – | – | Half-Life of ADR Destruction, 100 μM Test Compound and 0.5 μM Riboflavin [2]: 50.2 min |
| COc1ccc(CCN)cc1 | 60.2 min | 33.9 min | – |
| Cc1cc(C)c(N)cc1C | – | 20.1 min | – |
| COc1cc(C=CC(=O)O)cc(OC)c1 | 50.2 min | 5.28 min | – |
| Nc1ccc2c(c1)Cc1ccccc1-2 | – | 25.1 min | – |
| Cc1cccc(C)c1N | – | 33.5 min | – |

| Compound | Half-Life of ADR Destruction, 100 μM Test Compound (100 μM test compound alone) | Half-Life of ADR Destruction, 100 μM Test Compound and 0.5 μM Riboflavin [1] | also measured |
| --- | --- | --- | --- |
| Nc1ccccc1 | – | 15.9 ± 10.3 min | – |
| NCC(O)c1ccccc1 (centres unmarked) | – | 75.3 min | – |
| Cc1ccccc1N | – | 18.8 min | – |
| [O-][S+](c1ccccc1)c1ccccc1 | 50.2 min | 43.0 min | – |
| c1ccc2c(c1)oc1ccccc12 | – | 50.2 min | – |
| O=C(O)CCc1ccccc1 | 60.2 min | 43.0 min | – |
| Cc1nccc2c1[nH]c1ccccc12 | 13.7 min | 12.5 min | – |
| NCCc1ccc(N)cc1 | 46.6 ± 5.1 min | 6.56 ± 2.28 min | – |
| CN(C)c1ccccc1 | – | 150.5 min | – |
| Cn1c(=O)[nH]c(=O)c2[nH]cnc21 | 50.2 min | 16.7 min | – |
| O=C(O)COc1ccc(Cl)cc1Cl | 60.2 min | 43.0 min | half-life (FIG. 32): 60.2; half-life (FIG. 32) in the presence of riboflavin: 43.0 |
| Nc1ccccc1-c1ccccc1 | – | 15.8 min | – |
| O=C(O)c1ccc2c(c1)C(=O)c1ccccc1C2=O | 1.64 min | 1.57 min | – |
| Nc1cccc2c1Cc1ccccc1-2 | 60.2 min | 43.0 min | – |
| O=Cc1ccccc1 | 60.2 min | 50.2 min | – |
| Nc1ccc(Cc2ccc(N)cc2)cc1 | – | 50.2 min | – |
| O=C(O)C1c2ccccc2Oc2ccccc21.O=C(O)c1ccccc1 | 10.8 min | 8.36 min | – |
| COc1ccccc1N | – | 13.1 min | – |
| CN(C)c1ccc(N(C)C)cc1 | – | 301.0 min | – |
| Cc1ccc(N)cc1 | – | 21.5 min | – |
| Nc1cccc(C(F)(F)F)c1 | – | 18.8 min | – |
| NCCc1ccccc1 | – | 50.2 min | – |
| NCCc1c[nH]c2ccccc12 | – | 33.5 min | – |
| Cc1cccc(N)c1C | – | 27.4 min | – |
